Measured affinities in a library of Ab-14 heavy chain variants

Target peptide (SARS-CoV-2 spike, HR2 region): PDVDLGDISGINAS

The variants keep the light chain, the linker and the frameworks of Ab-14 (scFv order VH, the linker GGGGSGGGGSGGGGS, VL).
VH: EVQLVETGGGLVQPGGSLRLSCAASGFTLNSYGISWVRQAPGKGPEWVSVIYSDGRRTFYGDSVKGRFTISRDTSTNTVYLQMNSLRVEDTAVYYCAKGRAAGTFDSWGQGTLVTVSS
VL: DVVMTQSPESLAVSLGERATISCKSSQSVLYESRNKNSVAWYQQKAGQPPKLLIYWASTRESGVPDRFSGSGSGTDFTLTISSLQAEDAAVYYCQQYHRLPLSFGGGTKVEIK

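The starting antibody came from a phage panning campaign against this peptide. Variants in AAYL49 differ from the parent at up to three CDR positions; double and triple changes were sampled at random. Affinity was read by AlphaSeq, a pooled yeast mating assay with surface-displayed partners. The frequency of each diploid, read from paired DNA barcodes, reflects how well the two displayed proteins bind. The ratio of observed to expected reads was calibrated, replicate by replicate, on BCL2-family standards whose Kd was known from biolayer interferometry. There are three technical replicates.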

Variants are written as CDR1, CDR2 and CDR3 of the heavy chain (limits as in the source). Parent: GFTLNSYGIS, VIYSDGRRTFYGDSVK, GRAAGTFDS.
Numbers give log10(Kd / nM), so 0 is 1 nM and 3 is 1 µM. Smaller is tighter.
A mean of the replicates is given; it leaves out those without a signal.
Where no diploid with the target was found in that replicate, the entry reads "nd": below detection, most likely a poor binder, though not proof of it.
Three control strains display no target. For library AAYL49, 15% of the pairings with them gave a signal, with a median of 4.06 and one signal in twenty below 2.83, so weak values seen in few replicates may be background. For each scFv, signals with the empty controls are counted beside the result, with their mean in brackets.

| # | CDR-H1 | CDR-H2 | CDR-H3 | replicates, log10 nM | log10 Kd (nM), mean | empty controls |
|---|---|---|---|---|---|---|
| 1 | CFTLNSTGIS | VIYSHGRRTFYGDSVK | GRAAGTFDS | nd / nd / nd | nd | 2 of 9 (4.59) |
| 2 | GFTLNSYGIS | VINSDGRRTFMGDSVH | GRAAGTFDS | nd / nd / 5.07 | 5.07 | 4 of 9 (4.61) |
| 3 | GFHLNSYGIS | VIYSDGRRTAYGDSVK | GRAAGTFDS | 0.00 / 0.34 / 0.24 | 0.20 | 1 of 9 (4.97) |
| 4 | GFTLNSYGIS | VIWSDGRRTFYPDSVK | GRNAGTFDS | nd / nd / nd | nd | 1 of 9 (3.32) |
| 5 | GKTLNSYGIS | VIYSDGRTTFYGDCVK | GRAAGTFDS | nd / nd / nd | nd | 1 of 9 (3.12) |
| 6 | GFTANSYGIS | VIYSDGRRTFYGDSVK | GRAATVFDS | nd / nd / nd | nd | 1 of 9 (4.24) |
| 7 | VFTLNSYGIS | VIYSDGRRDFYGDSVK | GIAAGTFDS | nd / nd / nd | nd | 1 of 9 (3.09) |
| 8 | GFTPNRYGIS | VIYSDGRRTFYGDSVK | GRAAGTFDS | 2.98 / nd / 3.86 | 3.42 | 2 of 9 (3.87) |
| 9 | GFTLNSYGIS | VIYSDGNRTFYGDSVK | GRTAGTFDK | 1.59 / 1.50 / 1.71 | 1.60 | 1 of 9 (4.20) |
| 10 | GFTLNSYGFS | VIYSDGRRTFYYDSVK | GRAAGTFDE | nd / nd / nd | nd | 0 of 9 |
| 11 | GFTLNSYGIS | VGYSDGRRWFYGDSVK | GRAAGTFDY | nd / nd / nd | nd | 1 of 9 (4.42) |
| 12 | EFTLNSYGIS | VIYSDGRRTFYGDSVK | GRAAGTFCH | nd / 2.85 / nd | 2.85 | 1 of 9 (3.05) |
| 13 | GFTLNSYGIS | VIYWDGRRTFYHDSVK | GAAAGTFDS | 0.87 / 1.18 / 1.28 | 1.11 | 0 of 9 |
| 14 | GQTLNSYGIS | VIYSDGRRTFYGDSVK | GRAAGTRDS | nd / nd / nd | nd | 0 of 9 |
| 15 | GFTLNSYGIS | VIYSDGRRTFYIWSVK | GRAAGTADS | nd / nd / nd | nd | 0 of 9 |
| 16 | GFTLNSYGIS | VIYSDGRRTFYGDSVK | GRAPGTFDS | 0.79 / 0.88 / 0.92 | 0.87 | 0 of 9 |
| 17 | GFTLNSYGIS | VIYSDGRRPFYGDSVK | CRRAGTFDS | nd / nd / nd | nd | 0 of 9 |
| 18 | GFTGNSYGIS | VILSDGRRTFYGDNVK | GRAAGTFDS | nd / nd / nd | nd | 2 of 9 (3.60) |
| 19 | LFTLNSYGIS | VIYSFGRRTKYGDSVK | GRAAGTFDS | nd / nd / 4.03 | 4.03 | 1 of 9 (3.41) |
| 20 | CFTLNSYGIS | VIYSDGHRTFYGDSVK | GRAAGTFDS | nd / nd / nd | nd | 1 of 9 (3.37) |
| 21 | GFTLQSEGIS | VIYSDGRRYFYGDSVK | GRAAGTFDS | nd / nd / nd | nd | 0 of 9 |
| 22 | GFTLNSYGIS | TIYSDGRRTFYNDGVK | GRAAGTFDS | nd / nd / 4.52 | 4.52 | 2 of 9 (4.20) |
| 23 | GFTLNSGGIS | VIYSNGRRTFYGDSVK | GRAFGTFDS | nd / nd / nd | nd | 1 of 9 (2.22) |
| 24 | GFTLNSYGIS | PIYSDGRRTFYGDSVK | GRAIGTFDA | nd / nd / nd | nd | 4 of 9 (4.63) |
| 25 | GFTLNSYGIS | VIYSDGRRTFHGPCVK | GRAAGTFDS | 4.04 / 4.40 / 4.19 | 4.21 | 4 of 9 (4.08) |
| 26 | GFTNNSYGIQ | VIYSDGRRTFYGDSVK | GRAAGTFDE | nd / nd / nd | nd | 0 of 9 |
| 27 | GFTLNSYGYS | VIDLDGRRTFYGDSVK | GRAAGTFDS | nd / nd / nd | nd | 1 of 9 (4.62) |
| 28 | GFTLNSYGIS | VIYSDGCCTFYGDSVK | GRAAGTFDK | nd / nd / nd | nd | 0 of 9 |
| 29 | GFTLNSYGIS | VIYSDGRATHYGDSVK | GRAAGNFDS | nd / nd / nd | nd | 1 of 9 (4.54) |
| 30 | GFTLNQYGIS | VIYSDGRRPFYGDSVK | GRMAGTFDS | nd / 3.03 / 3.63 | 3.33 | 4 of 9 (5.01) |
| 31 | GFTLNNYGIS | VIYADSRRTFYGDSVK | GRAAGTFDS | 1.93 / 2.06 / 2.55 | 2.18 | 4 of 9 (4.87) |
| 32 | HFTLNSYGIS | VIYSDGRTTFYGDSVK | GRAAGTFDP | nd / nd / nd | nd | 2 of 9 (4.17) |
| 33 | GFTLNSYWIS | VIYSDGRRTFYGDSVK | GRARITFDS | 5.19 / 4.06 / 4.75 | 4.67 | 4 of 9 (4.28) |
| 34 | GFTLNRYGIS | VIYSDGRRTFYGDSVK | GRAAGTFDS | 1.31 / 1.84 / 1.65 | 1.60 | 2 of 9 (4.65) |
| 35 | GDTLNWYGIS | VIYSDGRRTFYGWSVK | GRAAGTFDS | nd / 2.29 / nd | 2.29 | 0 of 9 |
| 36 | GFTLNSYGIS | VFYSDGRRTDEGDSVK | GRAAGTFDS | nd / nd / nd | nd | 0 of 9 |
| 37 | GFTLNSYGIS | VIYSDYRHTFYGDSVK | GRAAGTFRS | nd / 3.69 / 5.02 | 4.36 | 2 of 9 (4.18) |
| 38 | GFKLNIYGIS | VIYSDGERTFYGDSVK | GRAAGTFDS | 1.49 / 1.58 / 2.90 | 1.99 | 1 of 9 (3.89) |
| 39 | GFDLNSYIIS | VIMSDGRRTFYGDSVK | GRAAGTFDS | nd / 4.84 / nd | 4.84 | 0 of 9 |
| 40 | GFTLNKYGIS | VIYSDGRRTFIGDSVK | GRAAGTFRS | nd / 3.51 / nd | 3.51 | 0 of 9 |
| 41 | GFTLNSYGIS | SIYSDGRKTFYGDSVK | GRADGTFDS | 5.11 / nd / nd | 5.11 | 3 of 9 (3.63) |
| 42 | SFTLNSYGIS | VIYSDGRRTFYGDSVK | GRANGTFFS | 5.46 / 4.76 / nd | 5.11 | 1 of 9 (4.59) |
| 43 | GFTLNSYEIS | VIGNDGRRTFYGDSVK | GRAAGTFDS | nd / nd / nd | nd | 0 of 9 |
| 44 | GPTLNSYWIS | VIYSDGRRTFLGDSVK | GRAAGTFDS | nd / nd / nd | nd | 0 of 9 |

A selection of 6 entries from above:

| CDR-H1 | CDR-H2 | CDR-H3 | replicates, log10 nM | log10 Kd (nM), mean | empty controls |
|---|---|---|---|---|---|
| GFDLNSYIIS | VIMSDGRRTFYGDSVK | GRAAGTFDS | nd / 4.84 / nd | 4.84 | 0 of 9 |
| GFTLNSYGIS | VIYSDGRRTFHGPCVK | GRAAGTFDS | 4.04 / 4.40 / 4.19 | 4.21 | 4 of 9 (4.08) |
| GFTLNSYWIS | VIYSDGRRTFYGDSVK | GRARITFDS | 5.19 / 4.06 / 4.75 | 4.67 | 4 of 9 (4.28) |
| HFTLNSYGIS | VIYSDGRTTFYGDSVK | GRAAGTFDP | nd / nd / nd | nd | 2 of 9 (4.17) |
| GFTLNSYGIS | VIYSDGRATHYGDSVK | GRAAGNFDS | nd / nd / nd | nd | 1 of 9 (4.54) |
| GQTLNSYGIS | VIYSDGRRTFYGDSVK | GRAAGTRDS | nd / nd / nd | nd | 0 of 9 |

From the AlphaSeq antibody data of Engelhart et al. 2022 (doi:10.1038/s41597-022-01779-4), copy in the FLAb collection.